Test [1] deals with NADPH quinone oxidoreductase (NQO1). The test can be described thus: NRF2 target gene activation: NQO1 protein levels by Western Blot in HaCaT keratinocytes. The format is cell-based, human. The conditions noted are these: HaCaT cells, 10 μM compound, 6 h. How it is done:
(§1) Molecules that block the degradatior of NRF2 serve as NRF2 activators. This has the effect of stabilizing NRF2 protein levels and upregulating target gene levels, such as NQO1. […] CDDO is a positive control compound that activates NRF2 through an electrophilic mechanism. […] HaCat Cells were treated with 10 μM compound unless otherwise indicated.
(§2) Spontaneously immortalized human keratinocytes (HaCaT cell line) were grown in Dubecco's modified Eagle's medium (DMEM) with 10% fetal bovine serum and 1% antibiotics. […] Cells were lysed in a 20 mM Tris (pH 7.5) buffer containing 150 mM NaCl, 1 mM EDTA, 1 mM EGTA, 1% Triton X-100, 2.5 mM sodium pyrophosphate, 1 mM Na3VO4, 5 mM β-glycerophosphate, and 1 μg/mL leupeptin. Equal amount of protein (˜40 μg) was separated on a 10% SDS-PAGE, blotted on the membrane, and probed with antiNRF2, or anti-NQO1 antibody. […] CDDO is a positive control compound that activates NRF2 through an electrophilic mechanism.
In general terms: In western blotting, separated proteins are transferred to a membrane and probed.

The subject of another test is NRF2. The test can be described thus: NRF2 stabilization by Western Blot in HaCaT keratinocytes. The format is cell-based, human. To be noted: HaCaT cells, 10 μM compound, 6 h, relative to vehicle (DMSO) control. How it is done: as §1, §2

`COc1ccc(S(=O)(=O)N(CC(F)(F)F)c2cnc(N(CC(=O)O)S(=O)(=O)c3ccc(OC)cc3)c3ccccc23)cc1` [Compound B0, N-(4-((4-methoxy-N-(2,2,2-trifluoroethyl)phenyl)sulfonamido)isoquinolin-1-yl)-N-((4-methoxyphenyl)sulfonyl)glycine]: the “levels of NQO1” value in test [1] is “increase the levels of NQO1”. In the test with NRF2, the “stabilization of NRF2 expression” value is recorded as “stabilize NRF2 expression”.

The values are drawn from US11396496B2, “1,4-substituted isoquinoline inhibitors of KEAP1/NRF2 protein-protein interaction” (THE BOARD OF TRUSTEES OF THE UNIVERSITY OF ILLINOIS, priority 2018, dated 2022).
